# Binding of CDR-mutated scFvs to a peptide of the spike HR2 region

Values reported by Li et al. 2023, doi:10.1038/s41467-023-39022-2 (FLAb copy).

The target is the same throughout: PDVDLGDISGINAS, from the HR2 region of SARS-CoV-2 spike.

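The starting antibody came from a phage panning campaign against this peptide. Designed CDR sequences, proposed from the first random library and measured here. Their group label is 14L_GP_Gen (GP: Gaussian process model; Gen: genetic algorithm; a sequence that several methods proposed may carry one label only). The assay is AlphaSeq: two haploid yeast populations carry antibody and antigen on their surface. Binding brings cells together so that they mate, and sequencing counts the barcode pairs among the diploids. Read counts were normalised to the haploid input and turned into Kd by a linear fit to BCL2-family pairs of known affinity, for each replicate. Each pool was mated in six replicate cultures.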

Each scFv is VH, a (GGGGS)3 linker, VL, as in the parent Ab-14, and differs from it in the CDRs of the light chain only.
VH: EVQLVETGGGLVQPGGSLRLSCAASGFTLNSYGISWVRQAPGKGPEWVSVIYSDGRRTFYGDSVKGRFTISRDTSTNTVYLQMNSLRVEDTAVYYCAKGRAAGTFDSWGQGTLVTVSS
VL: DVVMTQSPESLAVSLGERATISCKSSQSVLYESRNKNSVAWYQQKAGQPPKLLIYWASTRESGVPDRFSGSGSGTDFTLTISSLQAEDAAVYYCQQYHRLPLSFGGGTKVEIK

Positions count from residue 1 of the parent VL; S25L puts L in place of S. The read-out is the apparent dissociation constant on a log10 scale (nM): the lower, the stronger. A mean of the replicates is given; it leaves out those without a signal. An entry "ND" has no value in the source: the pair was not observed among the diploids in that replicate. This suggests poor binding but is not conclusive. A sequence measured in both rounds can read differently, since the two assays cover different ranges. The authors averaged sequences with at least three values out of six and counted those with two or fewer as poor binders. Background: pairings of all light chain designs with three empty control strains gave a value in 4% of cases (median 2.64, 5th percentile 1.59). Values in that range, when seen in few replicates, are hard to tell from nonspecific mating. The control count says in how many pairings with the empty strains this scFv gave a signal, with their mean in brackets. Of ten entries with the parent sequence, four were seen in most replicates (averages 0.34 to 2.37), three in one and three in none, so single entries are noisy.

| changes | log10 Kd, replicates | mean, log10 nM | signal with controls |
|---|---|---|---|
| S25L/S26Q/V29Y/W56N/S62V | 0.36 / 0.50 / 0.14 / 0.23 / 0.61 / 0.85 | 0.45 | 1/18 (2.13) |
| S25V/S26M/W56N/T59Q | -0.21 / -0.35 / -0.37 / -0.26 / -0.43 / -0.27 | -0.32 | 1/18 (2.81) |
| S25L/Q27G/V29W/W56G | -0.49 / -0.53 / -0.68 / -0.73 / -0.51 / -0.54 | -0.58 | 1/18 (2.66) |
| S25L/S26Q/V29H/W56E/E61C | 0.01 / -0.20 / -0.19 / -0.22 / -0.03 / 0.05 | -0.10 | 0/18 |
| S25L/V29Y/L30E/W56N | -0.49 / -0.51 / -0.37 / -0.51 / -0.80 / -0.35 | -0.50 | 2/18 (3.08) |
| S25L/S26D/V29W/W56N/E61C | 0.24 / 0.12 / -0.03 / 0.00 / -0.12 / 0.21 | 0.07 | 3/18 (2.90) |
| K24Y/S25L/W56N | -0.03 / -0.15 / -0.46 / -0.12 / -0.41 / 0.13 | -0.17 | 1/18 (2.84) |
| S25V/V29N/S38N/W56E | -0.27 / -0.24 / -0.14 / -0.39 / -0.37 / -0.14 | -0.26 | 2/18 (3.39) |
| S25L/Q27G/V29W/W56D | -0.38 / -0.53 / -0.42 / -0.63 / -0.58 / -0.44 | -0.50 | 1/18 (2.44) |
| S25L/S26Q/V29Q/W56E/E61L | 0.41 / 0.28 / 0.25 / 0.14 / 0.16 / 0.31 | 0.26 | 2/18 (3.09) |
| S25L/S38A/W56N/S62D | -0.50 / -0.52 / -0.55 / -0.83 / -0.68 / -0.42 | -0.58 | 2/18 (2.19) |
| S25V/S33D/S38N/W56N | -0.39 / -0.72 / -0.57 / -0.81 / -0.82 / -0.67 | -0.66 | 0/18 |
| S25V/V29W/W56N/T59Q/S62D | -0.28 / -0.37 / -0.32 / -0.55 / -0.33 / -0.12 | -0.33 | 0/18 |
| S25V/S33Q/W56E | 0.07 / 0.35 / -0.05 / -0.13 / -0.06 / 0.08 | 0.04 | 2/18 (2.17) |
| S25L/V29D/W56D/E61L | -0.33 / -0.42 / -0.44 / -0.52 / -0.50 / -0.31 | -0.42 | 1/18 (3.12) |
| S25L/W56Q/S62M | 0.03 / 0.13 / -0.18 / -0.11 / -0.01 / 0.06 | -0.01 | 1/18 (2.96) |
| S25L/L30G/W56E/S62E | -0.06 / 0.02 / -0.04 / -0.28 / -0.13 / -0.15 | -0.11 | 1/18 (3.62) |
| S25L/S26Q/V29E/W56Q/E61M | 0.17 / -0.13 / -0.11 / 0.05 / -0.03 / 0.17 | 0.02 | 3/18 (2.87) |
| S25L/V29F/W56D/E61C | -0.16 / 0.10 / -0.03 / -0.19 / -0.06 / 0.17 | -0.03 | 0/18 |
| S25V/S26Y/V29Y/W56N | -0.17 / -0.29 / -0.39 / -0.40 / -0.38 / -0.23 | -0.31 | 1/18 (2.80) |
| S25F/W56E/Q96D | 0.19 / 0.12 / 0.24 / -0.19 / -0.05 / 0.15 | 0.08 | 1/18 (2.75) |
| S25L/S26Q/V29N/W56N/E61C | 0.22 / -0.41 / -0.06 / -0.41 / -0.34 / -0.22 | -0.20 | 0/18 |
| S25L/V29G/W56E/S62V | -0.34 / -0.19 / -0.22 / -0.47 / -0.39 / -0.30 | -0.32 | 0/18 |
| S25L/L30P/W56E/E61M | -0.04 / -0.36 / -0.57 / -0.57 / -0.45 / -0.17 | -0.36 | 0/18 |
| S25L/S26P/E32Q/W56N | -0.09 / -0.38 / -0.25 / -0.55 / -0.22 / -0.08 | -0.26 | 1/18 (2.64) |
| S25L/V29W/K36W/S38N/W56N | -0.11 / -0.23 / -0.42 / -0.47 / -0.47 / -0.14 | -0.31 | 1/18 (2.97) |
| S25L/V29E/W56S/E61C | 0.22 / 0.03 / -0.10 / 0.26 / -0.08 / 0.49 | 0.14 | 0/18 |
| S25L/S26Q/V29A/W56N/E61M | 0.16 / 0.04 / 0.20 / 0.07 / 0.34 / 0.12 | 0.16 | 0/18 |
| S25L/V29C/W56N/E61M | -0.02 / 0.03 / -0.07 / -0.15 / -0.08 / 0.11 | -0.03 | 1/18 (3.08) |
| S25L/Q27A/V29M/W56N | 0.88 / 0.67 / 0.51 / 0.39 / 0.84 / 1.51 | 0.80 | 0/18 |
| S25L/V29Q/S38N/W56N | -0.47 / -0.27 / -0.85 / -0.68 / -0.84 / -0.53 | -0.61 | 0/18 |
| S25F/Q27G/V29Q/W56N | 0.65 / 0.12 / 0.06 / 0.03 / 0.18 / 0.42 | 0.24 | 1/18 (3.19) |
| S25L/N35M/W56N/S103M | ND / 2.61 / 2.07 / 2.14 / 2.48 / 2.32 | 2.32 | 2/18 (2.81) |
| S25L/V29W/W56N/E61M/S62M | -0.19 / -0.29 / -0.21 / -0.34 / -0.54 / -0.26 | -0.30 | 1/18 (3.21) |
| S25L/S26D/V29W/W56G | -0.24 / -0.36 / -0.40 / -0.43 / -0.33 / -0.41 | -0.36 | 1/18 (3.39) |
| S25L/S26Q/V29W/S38N/W56G | -0.17 / -0.57 / -0.47 / -0.73 / -0.70 / -0.63 | -0.55 | 0/18 |
| S25L/Q27M/V29E/W56N/E61M | -0.30 / -0.49 / -0.65 / -0.84 / -0.62 / -0.48 | -0.56 | 1/18 (3.40) |
| S25L/S26Q/V29W/L30G/W56N/E61M | 0.07 / -0.15 / -0.26 / -0.26 / -0.28 / 0.01 | -0.15 | 2/18 (3.12) |
| S25V/S33D/W56N/T59Q | 0.29 / 0.32 / 0.48 / 0.57 / 0.62 / 0.38 | 0.44 | 0/18 |
| S25M/K36S/W56D | 0.30 / 0.40 / 0.19 / 0.05 / 0.68 / 0.46 | 0.35 | 2/18 (3.14) |
| S25V/V29F/W56E | -0.02 / -0.05 / -0.36 / -0.48 / -0.57 / -0.03 | -0.25 | 0/18 |
| S25L/S26H/W56N | -0.11 / -0.19 / -0.14 / -0.34 / -0.40 / -0.13 | -0.22 | 1/18 (2.03) |
| S25L/S33T/W56N/T59Q | 0.09 / -0.05 / -0.26 / -0.29 / -0.08 / 0.01 | -0.10 | 3/18 (2.73) |
| S25V/V29W/W56N/S62D | -0.26 / -0.49 / -0.63 / -0.34 / -0.65 / -0.19 | -0.42 | 1/18 (3.59) |
| S25V/L30P/W56E/Q96D | 0.48 / 0.15 / 0.42 / 0.27 / 0.06 / 0.56 | 0.33 | 1/18 (2.64) |
| S25L/W56G/S62K | 0.00 / -0.27 / -0.07 / -0.18 / -0.20 / -0.11 | -0.14 | 4/18 (2.94) |
| S25L/L30E/W56G | -0.55 / -0.25 / -0.46 / -0.42 / -0.47 / -0.26 | -0.40 | 0/18 |
| S25L/S26Q/V29E/W56H/E61L | 0.97 / 0.86 / 1.24 / 1.24 / 1.20 / 0.95 | 1.08 | 0/18 |
| S25L/K36P/W56N/E61M | -0.20 / -0.35 / -0.26 / -0.52 / -0.40 / -0.23 | -0.33 | 1/18 (2.12) |
| K24F/S25L/S33D/W56N/T59Q | -0.25 / -0.34 / -0.24 / -0.50 / -0.38 / -0.39 | -0.35 | 4/18 (3.09) |
| S25L/S26Q/V29P/W56N | -0.03 / -0.18 / -0.09 / -0.17 / -0.09 / -0.04 | -0.10 | 1/18 (3.49) |
| S25L/S26D/W56N/T59Q/E61L | -0.15 / -0.34 / -0.25 / -0.49 / -0.32 / -0.15 | -0.28 | 1/18 (2.45) |